The text below walks through data of PubChem BioAssay (EPA / NIEHS).

Chains of the proteins cited; added tags and fusions are not shown.
UniProt P19793, whole entry: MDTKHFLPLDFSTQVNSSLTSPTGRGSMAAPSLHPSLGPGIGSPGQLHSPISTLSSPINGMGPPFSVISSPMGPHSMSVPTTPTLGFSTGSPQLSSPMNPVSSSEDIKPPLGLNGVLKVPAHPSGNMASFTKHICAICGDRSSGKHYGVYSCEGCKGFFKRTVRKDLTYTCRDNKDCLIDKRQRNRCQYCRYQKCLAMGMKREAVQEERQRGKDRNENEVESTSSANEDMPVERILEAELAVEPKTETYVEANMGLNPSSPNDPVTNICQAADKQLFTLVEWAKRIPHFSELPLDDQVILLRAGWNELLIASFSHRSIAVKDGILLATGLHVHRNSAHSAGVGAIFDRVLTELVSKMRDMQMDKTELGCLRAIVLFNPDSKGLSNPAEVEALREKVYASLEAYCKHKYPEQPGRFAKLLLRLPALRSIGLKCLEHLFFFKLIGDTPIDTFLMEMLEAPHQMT
UniProt P37231, whole entry: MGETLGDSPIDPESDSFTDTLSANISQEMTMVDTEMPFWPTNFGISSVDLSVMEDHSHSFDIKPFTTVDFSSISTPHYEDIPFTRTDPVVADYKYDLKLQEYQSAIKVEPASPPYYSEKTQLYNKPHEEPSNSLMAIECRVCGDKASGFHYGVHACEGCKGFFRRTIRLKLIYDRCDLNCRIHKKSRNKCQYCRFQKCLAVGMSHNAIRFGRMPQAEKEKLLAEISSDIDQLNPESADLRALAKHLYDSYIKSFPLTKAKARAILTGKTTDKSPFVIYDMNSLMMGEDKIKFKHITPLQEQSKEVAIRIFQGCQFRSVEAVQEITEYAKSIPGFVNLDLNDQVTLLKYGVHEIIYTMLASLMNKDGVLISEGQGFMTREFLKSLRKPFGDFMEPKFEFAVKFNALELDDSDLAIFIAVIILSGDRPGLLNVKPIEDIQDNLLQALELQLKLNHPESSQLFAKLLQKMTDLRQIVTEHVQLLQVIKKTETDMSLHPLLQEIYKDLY
UniProt P49327, whole entry: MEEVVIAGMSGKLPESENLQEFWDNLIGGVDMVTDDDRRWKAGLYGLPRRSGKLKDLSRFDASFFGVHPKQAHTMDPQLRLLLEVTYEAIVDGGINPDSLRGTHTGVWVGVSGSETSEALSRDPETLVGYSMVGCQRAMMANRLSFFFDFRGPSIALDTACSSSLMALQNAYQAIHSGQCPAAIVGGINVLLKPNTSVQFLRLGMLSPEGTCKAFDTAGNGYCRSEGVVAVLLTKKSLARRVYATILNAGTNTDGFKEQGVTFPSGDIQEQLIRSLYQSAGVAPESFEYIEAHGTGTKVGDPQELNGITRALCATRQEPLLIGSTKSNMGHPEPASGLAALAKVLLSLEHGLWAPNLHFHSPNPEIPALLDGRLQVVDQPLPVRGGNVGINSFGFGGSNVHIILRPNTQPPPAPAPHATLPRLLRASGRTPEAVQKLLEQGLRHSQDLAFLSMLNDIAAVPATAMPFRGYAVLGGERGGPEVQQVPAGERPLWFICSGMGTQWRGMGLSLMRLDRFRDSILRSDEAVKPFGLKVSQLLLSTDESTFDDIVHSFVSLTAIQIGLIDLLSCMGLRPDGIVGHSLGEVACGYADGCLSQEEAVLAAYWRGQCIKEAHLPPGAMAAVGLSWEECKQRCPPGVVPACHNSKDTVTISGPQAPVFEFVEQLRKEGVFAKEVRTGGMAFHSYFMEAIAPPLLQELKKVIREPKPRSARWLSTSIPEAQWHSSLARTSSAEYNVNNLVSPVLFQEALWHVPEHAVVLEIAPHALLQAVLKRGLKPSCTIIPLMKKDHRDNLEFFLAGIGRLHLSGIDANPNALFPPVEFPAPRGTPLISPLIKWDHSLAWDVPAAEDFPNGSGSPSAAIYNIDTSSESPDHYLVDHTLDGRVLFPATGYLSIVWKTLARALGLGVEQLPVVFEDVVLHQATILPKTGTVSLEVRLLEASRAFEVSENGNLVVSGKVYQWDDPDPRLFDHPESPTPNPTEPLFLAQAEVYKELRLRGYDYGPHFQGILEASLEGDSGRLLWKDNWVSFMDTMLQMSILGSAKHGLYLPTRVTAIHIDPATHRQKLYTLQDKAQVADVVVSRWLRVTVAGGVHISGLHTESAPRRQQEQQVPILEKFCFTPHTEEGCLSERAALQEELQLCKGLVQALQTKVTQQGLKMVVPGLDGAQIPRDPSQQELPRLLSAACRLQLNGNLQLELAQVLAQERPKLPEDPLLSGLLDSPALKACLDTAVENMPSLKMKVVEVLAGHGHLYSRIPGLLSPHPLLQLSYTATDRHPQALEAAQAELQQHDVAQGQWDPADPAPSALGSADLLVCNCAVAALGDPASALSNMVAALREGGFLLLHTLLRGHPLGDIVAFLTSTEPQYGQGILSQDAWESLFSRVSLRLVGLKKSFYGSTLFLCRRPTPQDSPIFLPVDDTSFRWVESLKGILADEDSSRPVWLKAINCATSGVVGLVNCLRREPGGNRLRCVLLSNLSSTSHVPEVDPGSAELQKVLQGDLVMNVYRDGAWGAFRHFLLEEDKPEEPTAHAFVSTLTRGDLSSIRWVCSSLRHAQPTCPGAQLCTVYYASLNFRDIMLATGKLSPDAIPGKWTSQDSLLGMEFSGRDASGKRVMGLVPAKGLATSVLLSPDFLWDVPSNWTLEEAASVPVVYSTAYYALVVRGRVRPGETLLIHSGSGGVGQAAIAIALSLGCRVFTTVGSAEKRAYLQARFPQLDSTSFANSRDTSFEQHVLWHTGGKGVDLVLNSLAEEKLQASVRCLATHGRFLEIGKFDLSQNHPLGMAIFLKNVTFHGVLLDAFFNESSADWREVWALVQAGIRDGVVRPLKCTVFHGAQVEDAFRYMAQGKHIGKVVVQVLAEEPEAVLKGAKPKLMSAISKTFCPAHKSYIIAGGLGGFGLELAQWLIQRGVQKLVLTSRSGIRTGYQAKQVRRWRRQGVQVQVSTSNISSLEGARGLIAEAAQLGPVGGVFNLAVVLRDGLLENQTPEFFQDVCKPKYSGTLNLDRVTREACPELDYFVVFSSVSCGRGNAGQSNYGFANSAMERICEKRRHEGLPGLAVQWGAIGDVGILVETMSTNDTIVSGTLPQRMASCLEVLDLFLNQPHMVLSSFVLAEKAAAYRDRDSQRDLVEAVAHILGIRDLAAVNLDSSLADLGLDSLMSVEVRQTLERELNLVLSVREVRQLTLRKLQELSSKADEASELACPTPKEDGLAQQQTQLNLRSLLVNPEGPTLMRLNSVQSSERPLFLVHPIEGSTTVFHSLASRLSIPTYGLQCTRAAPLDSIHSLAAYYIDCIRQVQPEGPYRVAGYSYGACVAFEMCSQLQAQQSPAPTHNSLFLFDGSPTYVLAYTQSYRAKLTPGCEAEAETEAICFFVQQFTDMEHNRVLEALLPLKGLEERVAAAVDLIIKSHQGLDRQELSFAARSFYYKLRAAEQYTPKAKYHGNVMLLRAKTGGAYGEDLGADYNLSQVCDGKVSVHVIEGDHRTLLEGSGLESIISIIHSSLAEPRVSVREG

SMILES strings stand for the structures. The entries are a selection whose mix differs from that of the whole data set. Records with an inconclusive call do not appear. Calls of active or inactive are those of the source. How the source made its calls, unless noted: active means hit-call score of the fitted dose curve at least 0.9, where 1 is the maximum; inactive means score below 0.9.

The target in test [1] is Retinoic acid receptor RXR-alpha (Homo sapiens) (UniProt P19793). The experiment in a line: OT_NURR1_NURR1RXRa_1440: Odyssey Thera (OT) 24-hour HEK293T Protein Complementation Assay for Nurr1/retinoid X receptor (RXR) (AID 2283386; active means hit-call score of the fitted dose curve at least 0.9, where 1 is the maximum). Put shortly:
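Measured as fluorescence from a reconstituted split reporter, this 24 h HEK293T complementation assay scores compound-induced gain of Nurr1/RXRα association relative to DMSO.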

The target of test [2] is Peroxisome proliferator-activated receptor gamma (Homo sapiens) (UniProt P37231). The experiment in a line: OT_PPARg_PPARgSRC1_0480: Odyssey Thera (OT) 8-hour Protein-Complementation Assay for Peroxisome Proliferator-activated Receptor Gamma / SRC-1 Co-activator (AID 2283387; active means hit-call score of the fitted dose curve at least 0.9, where 1 is the maximum). The method in brief:
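Protein-fragment complementation of split Venus YFP reports PPARg/SRC-1 interaction in HEK293T (transfected 48 h before treatment), exposed 8 h. Readout: N/C fluorescence ratio at 488 nm from imaging, Draq5 for segmentation, positive fit relative to DMSO.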

Test [3] shares this target. The experiment in a line: OT_PPARg_PPARgSRC1_1440: Odyssey Thera (OT) 24-hour Protein-Complementation Assay for Peroxisome Proliferator-activated Receptor Gamma/ SRC-1 Co-activator (AID 2283388; active means hit-call score of the fitted dose curve at least 0.9, where 1 is the maximum). Put shortly: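 HEK293T transiently transfected with PPARg/SRC-1 split-Venus YFP fusions 48 h before dosing, then treated 24 h at 37C. Fixed cells imaged; nuclear/cytoplasmic 488 nm fluorescence ratio, gain of signal versus DMSO.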

Read-out in test [4]: Tumor necrosis factor receptor superfamily member 6 (Homo sapiens) (UniProt P25445)
Put plainly: LTEA_HepaRG_FAS: Life Technologies and Expression Analysis (LTEA) Assay for Fas cell surface death receptor (FAS) using HepaRG (AID 2283447). The following applies: actives raise or lower the signal; mRNA level, 48 h. Put shortly:
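FAS transcript level was measured by TaqMan qRT-PCR against three housekeeping genes after 48 h chemical exposure. Cells were HepaRG, 0.5% DMSO vehicle, with a top concentration of 100 uM and half-log dilutions over eight points, in duplicate.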

Read-out in test [5]: Fatty acid synthase (Homo sapiens) (UniProt P49327)
Put plainly: LTEA_HepaRG_FASN: Life Technologies and Expression Analysis (LTEA) Assay for Fatty Acid Synthase (FASN) using HepaRG (AID 2283448). The following applies: actives raise or lower the signal; mRNA level, 48 h. The method in brief: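 Transcript-level assay: HepaRG liver cells are treated for 48 h across an eight-point range topping at 100 uM, and FASN mRNA, normalized to three housekeeping genes, is compared with DMSO controls in both directions.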

Read-out in test [6]: Cyclin D2 (CCND2), CCND2 (gene 894)
Put plainly: LTEA_HepaRG_CCND2: Life Technologies and Expression Analysis (LTEA) Assay for Cyclin D2 (CCND2) using HepaRG (AID 2283449). The following applies: actives raise or lower the signal; mRNA level, 48 h. The method in brief:
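Read-out is CCND2 mRNA level measured by qRT-PCR in human HepaRG liver cells and normalised to three housekeeping genes. Chemicals were applied for 48 h at up to 100 uM, with gain or loss fitted relative to 0.5% DMSO.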

Read-out in test [7]: Cyclin Dependent Kinase Inhibitor 1A (CDKN1A), CDKN1A (gene 1026)
The experiment in a line: LTEA_HepaRG_CDKN1A: Life Technologies and Expression Analysis (LTEA) Assay for Cyclin Dependent Kinase Inhibitor 1A (CDKN1A) using HepaRG (AID 2283450). The following applies: actives raise or lower the signal; mRNA level, 48 h. The method in brief: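 Differentiated HepaRG cells in serum-free induction medium, exposed 48 h in duplicate to eight half-log concentrations up to 100 uM in 0.5% DMSO. mRNA measured by TaqMan qRT-PCR, normalized to ACTB, GAPDH, POLR2A; bidirectional fit versus DMSO.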

Read-out in test [8]: Cyclin D1 (CCND1), CCND1 (gene 595)
Put plainly: LTEA_HepaRG_CCND1: Life Technologies and Expression Analysis (LTEA) Assay for Cyclin D1 (CCND1) using HepaRG (AID 2283451). The following applies: actives raise or lower the signal; mRNA level, 48 h. Put shortly: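 Differentiated HepaRG cells exposed 48 h in serum-free induction medium to eight half-log concentrations from 100 uM top, 0.5% DMSO, duplicates. CCND1 mRNA measured by Fluidigm TaqMan qRT-PCR, normalised to ACTB, GAPDH, POLR2A; bidirectional fit.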

Read-out in test [9]: catalase (CAT), CAT (gene 847)
The experiment in a line: LTEA_HepaRG_CAT: Life Technologies and Expression Analysis (LTEA) Assay for catalase (CAT) using HepaRG (AID 2283452). The following applies: actives raise or lower the signal; mRNA level, 48 h. Put shortly:
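Expression of CAT was quantified by TaqMan qRT-PCR with ACTB/GAPDH/POLR2A normalization after 48 h chemical exposure of HepaRG. Eight-point half-log series, top 100 uM, in 0.5% DMSO; gain or loss fitted against vehicle.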

Read-out in test [10]: flavin-containing dimethylaniline monooxygenases 3 (FMO3), FMO3 (gene 2328)
The experiment in a line: LTEA_HepaRG_FMO3: Life Technologies and Expression Analysis (LTEA) Assay for flavin-containing dimethylaniline monooxygenases 3 (FMO3) using HepaRG (AID 2283453). The following applies: actives raise or lower the signal; mRNA level, 48 h. The method in brief: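 HepaRG, 48 h exposure, 8-pt half-log series from 100 uM, 0.5% DMSO vehicle, duplicates; FMO3 transcript by Fluidigm TaqMan qRT-PCR, housekeeping-normalized; gain/loss fit vs DMSO.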

Read-out in test [11]: Cytochrome P450 (CYP1A1), CYP1A1 (gene 1543)
The experiment in a line: LTEA_HepaRG_CYP1A1: Life Technologies and Expression Analysis (LTEA) Assay for Cytochrome P450 (CYP1A1) using HepaRG (AID 2283454). The note with it: actives raise or lower the signal; mRNA level, 48 h. Put shortly:
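Differentiated human HepaRG cells, after 48 h plating, exposed in duplicate for 48 h in serum-free induction medium to 8 half-log concentrations up to 100 uM in 0.5% DMSO. CYP1A1 mRNA by qRT-PCR, normalized to ACTB/GAPDH/POLR2A; bidirectional fit versus DMSO.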

Read-out in test [12]: CFLAR gene, CFLAR (gene 8837)
Put plainly: LTEA_HepaRG_CFLAR: Life Technologies and Expression Analysis (LTEA) Assay for CFLAR gene using HepaRG (AID 2283455). The note with it: actives raise or lower the signal; mRNA level, 48 h. The method in brief: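 HepaRG, 48 h exposure, 8-pt conc-response (100 uM top, half-log), 0.5% DMSO vehicle, duplicates. CFLAR expression by qRT-PCR; ACTB/GAPDH/POLR2A normalization; gain or loss fit vs DMSO baseline.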

Read-out in test [13]: Forkhead box O1 (FOXO1), FOXO1 (gene 2308)
The experiment in a line: LTEA_HepaRG_FOXO1: Life Technologies and Expression Analysis (LTEA) Assay for Forkhead box O1 (FOXO1) using HepaRG (AID 2283456). The note with it: actives raise or lower the signal; mRNA level, 48 h. Put shortly: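 Readout is FOXO1 transcript level by multiplexed qRT-PCR against three housekeeping genes, curve-fitted in both directions relative to 0.5% DMSO vehicle. Human HepaRG cultures received chemicals for 48 h, up to 100 uM in half-log steps.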

Read-out in test [14]: growth arrest and DNA damage 45 (GADD45A), GADD45A (gene 1647)
The experiment in a line: LTEA_HepaRG_GADD45A: Life Technologies and Expression Analysis (LTEA) Assay for growth arrest and DNA damage 45 (GADD45A) using HepaRG (AID 2283458). The note with it: actives raise or lower the signal; mRNA level, 48 h. The method in brief: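 Human HepaRG liver cells are treated in duplicate for 48 h with chemicals in 0.5% DMSO, highest concentration 100 uM. Expression is read by qRT-PCR and analyzed in both directions against vehicle.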

Read-out in test [15]: Forkhead box O3 (FOXO3), FOXO3 (gene 2309)
Put plainly: LTEA_HepaRG_FOXO3: Life Technologies and Expression Analysis (LTEA) Assay for Forkhead box O3 (FOXO3) using HepaRG (AID 2283459). The note with it: actives raise or lower the signal; mRNA level, 48 h. Put shortly: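 HepaRG, 48 h post-dose; 8 conc., half-log from 100 uM, 0.5% DMSO, duplicates; serum-free induction medium. Readout: FOXO3 mRNA, TaqMan qRT-PCR, housekeeping-normalized. Bidirectional curve fit vs DMSO baseline.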

Read-out in test [16]: ABC Transporter (ABCB1), ABCB1 (gene 5243)
The experiment in a line: LTEA_HepaRG_ABCB1: Life Technologies and Expression Analysis (LTEA) Assay for ABC Transporter (ABCB1) using HepaRG (AID 2283460). The following applies: actives raise or lower the signal; mRNA level, 48 h. The method in brief: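 Expression of ABCB1 was quantified by qRT-PCR against three housekeeping genes after human HepaRG cultures received test chemicals for 48 hours. Concentrations spanned eight half-log steps topping at 100 uM in 0.5% DMSO; gain or loss of signal was fitted relative to vehicle.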

Read-out in test [17]: growth arrest and DNA damage 45 (GADD45B), GADD45B (gene 4616)
The experiment in a line: LTEA_HepaRG_GADD45B: Life Technologies and Expression Analysis (LTEA) Assay for growth arrest and DNA damage 45 (GADD45B) using HepaRG (AID 2283461). The note with it: actives raise or lower the signal; mRNA level, 48 h. The method in brief: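 Differentiated human HepaRG cells in serum-free induction medium exposed 48 h in duplicate to eight concentrations, top 100 uM, half-log steps, 0.5% DMSO. GADD45B mRNA by TaqMan qRT-PCR, normalized to ACTB, GAPDH, POLR2A; bidirectional fit versus DMSO.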

Read-out in test [18]: ABC Transporter (ABCC3), ABCC3 (gene 8714)
Put plainly: LTEA_HepaRG_ABCC3: Life Technologies and Expression Analysis (LTEA) Assay for ABC Transporter (ABCC3) using HepaRG (AID 2283462). The following applies: actives raise or lower the signal; mRNA level, 48 h. Put shortly:
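Differentiated human HepaRG cells exposed 48 h in serum-free induction medium, 0.5% DMSO vehicle, 8-point half-log series to 100 uM in duplicate. ABCC3 mRNA by qRT-PCR, normalised to ACTB, GAPDH, POLR2A; bidirectional fit vs DMSO.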

Read-out in test [19]: ABC Transporter (ABCB11), ABCB11 (gene 8647)
Put plainly: LTEA_HepaRG_ABCB11: Life Technologies and Expression Analysis (LTEA) Assay for ABC Transporter (ABCB11) using HepaRG (AID 2283463). The following applies: actives raise or lower the signal; mRNA level, 48 h. The method in brief:
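ABCB11 transcript levels are read by Fluidigm TaqMan qRT-PCR after 48 h chemical treatment of human HepaRG cells. Concentrations span 100 uM downward in half-log steps with 0.5% DMSO; gain or loss is fitted against DMSO controls.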

Read-out in test [20]: ABC Transporter (ABCC2), ABCC2 (gene 1244)
The experiment in a line: LTEA_HepaRG_ABCC2: Life Technologies and Expression Analysis (LTEA) Assay for ABC Transporter (ABCC2) using HepaRG (AID 2283464). The note with it: actives raise or lower the signal; mRNA level, 48 h. Put shortly:
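Differentiated HepaRG cells in serum-free induction medium exposed 48 h to eight half-log concentrations up to 100 uM, 0.5% DMSO, in duplicate. ABCC2 mRNA measured by qRT-PCR (TaqMan, Fluidigm), normalized to ACTB, GAPDH and POLR2A. Fitted in both directions against DMSO.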

Consider `ClCCOP(OCCCl)OCCCl`, for which the compound was called inactive in test [1], in [2] and in [3].

A word on the AC50: it is the concentration at which the activity in the assay is half-maximal. As for `O=[N+]([O-])c1ccccc1[N+](=O)[O-]`, the call in test [2], in test [3], in test [4], in [5], in test [6] and in [7] was inactive. Moreover, the outcome in test [8], in [9], in test [10], in test [12], in test [13] and in test [14] was inactive. In addition, the compound was classed as inactive in test [15], in test [16], in test [17], in test [18], in test [19] and in test [20]. The AC50 in test [11] is active: 63.9 µM.
